Measured values published in PMC5397429.

Target: Rabbit IgG (rabbit)
Assay: binding of I-125-labelled protein-coated gold nanoparticles to Sepharose affinity beads; Protein A on 15 nm gold labelled with I-125 mixed with Sepharose beads coupled to rabbit IgG or to Protein A (control); percent bound read from radioactivity and from loss of OD520 from the supernatant

Substance: Protein A (from UniProt P38507 37-477) (natural protein)
- % I-125 binding: 92%
- % OD520 binding: 82%
